# Values quoted from earlier work, collected in patent US20100136095A1, “Systems for modulating inflammation” (Searete LLC, a limited liability corporation of the State …, priority 2008, published 2010).
# Chains of the proteins cited; added tags and fusions are not shown. Residues count along the entry.
# UniProt P09619, 33-1106: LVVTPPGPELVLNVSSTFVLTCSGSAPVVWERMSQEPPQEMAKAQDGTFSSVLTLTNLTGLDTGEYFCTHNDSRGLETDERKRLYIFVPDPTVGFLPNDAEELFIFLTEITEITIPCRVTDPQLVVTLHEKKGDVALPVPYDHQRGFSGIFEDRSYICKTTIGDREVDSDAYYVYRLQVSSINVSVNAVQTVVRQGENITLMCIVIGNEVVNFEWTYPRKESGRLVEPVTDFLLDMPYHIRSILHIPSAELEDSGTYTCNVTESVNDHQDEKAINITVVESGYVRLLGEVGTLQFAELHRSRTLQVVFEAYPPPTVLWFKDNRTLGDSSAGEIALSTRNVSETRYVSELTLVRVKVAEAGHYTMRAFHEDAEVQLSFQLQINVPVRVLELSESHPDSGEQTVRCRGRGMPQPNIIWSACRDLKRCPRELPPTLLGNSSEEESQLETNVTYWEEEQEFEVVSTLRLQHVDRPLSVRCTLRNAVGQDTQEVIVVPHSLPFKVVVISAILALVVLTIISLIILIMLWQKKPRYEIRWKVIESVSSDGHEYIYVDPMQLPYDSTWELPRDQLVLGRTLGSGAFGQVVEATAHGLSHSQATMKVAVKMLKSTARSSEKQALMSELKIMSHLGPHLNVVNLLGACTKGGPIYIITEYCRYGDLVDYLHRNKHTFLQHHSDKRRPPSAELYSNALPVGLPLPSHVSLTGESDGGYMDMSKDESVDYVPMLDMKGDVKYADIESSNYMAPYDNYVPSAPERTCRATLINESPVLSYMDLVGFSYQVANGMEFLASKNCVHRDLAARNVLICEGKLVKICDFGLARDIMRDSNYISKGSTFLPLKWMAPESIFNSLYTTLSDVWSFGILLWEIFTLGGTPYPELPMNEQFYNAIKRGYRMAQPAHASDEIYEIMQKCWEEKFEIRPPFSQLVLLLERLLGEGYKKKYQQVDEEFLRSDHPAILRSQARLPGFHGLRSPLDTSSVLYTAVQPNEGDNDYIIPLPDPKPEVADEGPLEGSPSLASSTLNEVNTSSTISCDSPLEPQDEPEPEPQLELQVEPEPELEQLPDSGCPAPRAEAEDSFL
# UniProt P10721, 26-976: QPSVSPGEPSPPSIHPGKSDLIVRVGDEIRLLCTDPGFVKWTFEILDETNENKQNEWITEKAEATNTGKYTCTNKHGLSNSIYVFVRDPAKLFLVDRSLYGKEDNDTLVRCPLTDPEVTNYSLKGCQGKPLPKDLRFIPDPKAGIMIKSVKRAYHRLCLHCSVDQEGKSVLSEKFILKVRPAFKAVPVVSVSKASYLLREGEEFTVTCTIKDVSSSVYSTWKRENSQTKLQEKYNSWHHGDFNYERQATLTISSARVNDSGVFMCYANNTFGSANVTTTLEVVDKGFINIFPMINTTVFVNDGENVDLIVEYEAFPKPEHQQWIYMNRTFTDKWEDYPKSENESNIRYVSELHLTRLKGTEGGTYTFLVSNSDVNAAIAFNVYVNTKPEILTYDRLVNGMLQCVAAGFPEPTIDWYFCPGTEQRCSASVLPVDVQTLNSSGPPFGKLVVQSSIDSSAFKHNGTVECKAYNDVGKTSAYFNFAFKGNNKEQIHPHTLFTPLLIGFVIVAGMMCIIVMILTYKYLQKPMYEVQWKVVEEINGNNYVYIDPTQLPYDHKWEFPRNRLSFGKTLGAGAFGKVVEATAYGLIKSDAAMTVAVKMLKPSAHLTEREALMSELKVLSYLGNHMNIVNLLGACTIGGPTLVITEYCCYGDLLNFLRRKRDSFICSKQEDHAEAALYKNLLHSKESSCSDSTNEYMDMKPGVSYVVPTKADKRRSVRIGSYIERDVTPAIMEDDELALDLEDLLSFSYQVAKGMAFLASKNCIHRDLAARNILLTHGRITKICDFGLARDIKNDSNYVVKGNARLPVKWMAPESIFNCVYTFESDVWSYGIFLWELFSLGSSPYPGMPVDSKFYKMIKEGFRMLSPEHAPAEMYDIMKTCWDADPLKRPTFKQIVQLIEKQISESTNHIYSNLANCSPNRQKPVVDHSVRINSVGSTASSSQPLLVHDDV
# Columns and labels:
# PDGFRβ = PDGFRβ (Homo sapiens, UniProt P09619); settings: at nanomolar concentrations
# c-Kit = c-Kit (Homo sapiens, UniProt P10721); settings: at nanomolar concentrations
structure (smiles),measurement,setting,value
"Cc1nc(Nc2ncc(C(=O)Nc3c(C)cccc3Cl)s2)cc(N2CCN(CCO)CC2)n1.O [Dasatinib, N-(2-chloro-6-methylphenyl)-2-[[6-[4-(2-hydroxyethyl)-1-piperazinyl]-2-methyl-4-pyrimidinyl]amino]-5-thiazolecarboxamide, monohydrate]",inhibition of PDGFRβ,PDGFRβ,inhibits
same,inhibition of c-Kit,c-Kit,inhibits
